# Data: PubChem BioAssay (NCI)
# Some results for these compounds are left out of this collection, so the calls shown say nothing about other tests.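 Compound exposure: 48 hours, 5 concentrations, 96-well plates. The concentration for 50% growth inhibition is given as GI50. TGI marks complete inhibition of growth.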
# Experiments:
# Experiment in all cases: NCI anticancer screen, dose series, 48 h
# ACHN renal = system: ACHN renal
# MALME-3M melanoma = system: MALME-3M melanoma
# NCI-H460 lung = system: NCI-H460 lung
# OVCAR-8 ovarian = system: OVCAR-8 ovarian
# KM12 colon = system: KM12 colon
# HCT-116 colon = system: HCT-116 colon
# UACC-62 melanoma = system: UACC-62 melanoma
# KM20L2 colon = system: KM20L2 colon
# COLO 205 colon = system: COLO 205 colon
# HL-60(TB) leukemia = system: HL-60(TB) leukemia
# SR leukemia = system: SR leukemia
# NCI-H226 lung = system: NCI-H226 lung
# SK-MEL-2 melanoma = system: SK-MEL-2 melanoma
# A549 NSCLC = system: A549 NSCLC
# 786-0 renal = system: 786-0 renal
# UACC-257 melanoma = system: UACC-257 melanoma
# SF-539 CNS = system: SF-539 CNS
# RXF 393 renal = system: RXF 393 renal
# DMS 273 small cell lung = system: DMS 273 small cell lung
# SW-620 colon = system: SW-620 colon
# XF 498 CNS = system: XF 498 CNS
# UO-31 renal = system: UO-31 renal
# LOX IMVI melanoma = system: LOX IMVI melanoma
# OVCAR-3 ovarian = system: OVCAR-3 ovarian
# NCI-H322M lung = system: NCI-H322M lung
# RPMI-8226 leukemia = system: RPMI-8226 leukemia
# DLD-1 colon = system: DLD-1 colon
# HOP-18 NSCLC = system: HOP-18 NSCLC
# MOLT-4 leukemia = system: MOLT-4 leukemia
# A498 renal = system: A498 renal
# M14 melanoma = system: M14 melanoma
# HCC-2998 colon = system: HCC-2998 colon
# SNB-78 CNS = system: SNB-78 CNS
# CCRF-CEM leukemia = system: CCRF-CEM leukemia
# OVCAR-4 ovarian = system: OVCAR-4 ovarian
# HCT-15 colon = system: HCT-15 colon
# NCI-H522 lung = system: NCI-H522 lung
# LXFL 529 NSCLC = system: LXFL 529 NSCLC
# SK-OV-3 ovarian = system: SK-OV-3 ovarian
# HOP-92 NSCLC = system: HOP-92 NSCLC
# IGROV1 ovarian = system: IGROV1 ovarian
# U251 CNS = system: U251 CNS
# OVCAR-5 ovarian = system: OVCAR-5 ovarian
# SF-268 CNS = system: SF-268 CNS
# DMS 114 small cell lung = system: DMS 114 small cell lung
# SN12C renal = system: SN12C renal
# HT29 colon = system: HT29 colon
# M19-MEL melanoma = system: M19-MEL melanoma
# SF-295 CNS = system: SF-295 CNS
# NCI-H23 lung = system: NCI-H23 lung
# TK-10 renal = system: TK-10 renal
# K-562 leukemia = system: K-562 leukemia
# SNB-19 CNS = system: SNB-19 CNS
# SK-MEL-28 melanoma = system: SK-MEL-28 melanoma
# EKVX NSCLC = system: EKVX NSCLC
# HOP-62 NSCLC = system: HOP-62 NSCLC
smiles,measurement,setting,value
ClCCCCC(CCl)NCCCl (configuration not stated),GI50,ACHN renal,33.5 µM
same,TGI,ACHN renal,> 100 µM
same,GI50,MALME-3M melanoma,> 100 µM
same,TGI,MALME-3M melanoma,> 100 µM
same,GI50,NCI-H460 lung,25.9 µM
same,TGI,NCI-H460 lung,> 100 µM
same,GI50,OVCAR-8 ovarian,> 100 µM
same,TGI,OVCAR-8 ovarian,> 100 µM
same,GI50,KM12 colon,> 100 µM
same,TGI,KM12 colon,> 100 µM
same,GI50,HCT-116 colon,> 100 µM
same,TGI,HCT-116 colon,> 100 µM
same,GI50,UACC-62 melanoma,31.9 µM
same,TGI,UACC-62 melanoma,> 100 µM
same,GI50,KM20L2 colon,> 100 µM
same,TGI,KM20L2 colon,> 100 µM
same,GI50,COLO 205 colon,> 100 µM
same,TGI,COLO 205 colon,> 100 µM
same,GI50,HL-60(TB) leukemia,14.5 µM
same,TGI,HL-60(TB) leukemia,> 100 µM
same,GI50,SR leukemia,6.63 µM
same,TGI,SR leukemia,> 100 µM
same,GI50,NCI-H226 lung,44.4 µM
same,TGI,NCI-H226 lung,> 100 µM
same,GI50,SK-MEL-2 melanoma,> 100 µM
same,TGI,SK-MEL-2 melanoma,> 100 µM
same,GI50,A549 NSCLC,66.2 µM
same,TGI,A549 NSCLC,> 100 µM
same,GI50,786-0 renal,41.3 µM
same,TGI,786-0 renal,> 100 µM
same,GI50,UACC-257 melanoma,> 100 µM
same,TGI,UACC-257 melanoma,> 100 µM
same,GI50,SF-539 CNS,42.3 µM
same,TGI,SF-539 CNS,> 100 µM
same,GI50,RXF 393 renal,72.1 µM
same,TGI,RXF 393 renal,> 100 µM
same,GI50,DMS 273 small cell lung,40 µM
same,TGI,DMS 273 small cell lung,> 100 µM
same,GI50,SW-620 colon,> 100 µM
same,TGI,SW-620 colon,> 100 µM
same,GI50,XF 498 CNS,> 100 µM
same,TGI,XF 498 CNS,> 100 µM
same,GI50,UO-31 renal,> 100 µM
same,TGI,UO-31 renal,> 100 µM
same,GI50,LOX IMVI melanoma,57.5 µM
same,TGI,LOX IMVI melanoma,> 100 µM
same,GI50,OVCAR-3 ovarian,> 100 µM
same,TGI,OVCAR-3 ovarian,> 100 µM
same,GI50,NCI-H322M lung,> 100 µM
same,TGI,NCI-H322M lung,> 100 µM
same,GI50,RPMI-8226 leukemia,> 100 µM
same,TGI,RPMI-8226 leukemia,> 100 µM
same,GI50,DLD-1 colon,> 100 µM
same,TGI,DLD-1 colon,> 100 µM
same,GI50,HOP-18 NSCLC,> 100 µM
same,TGI,HOP-18 NSCLC,> 100 µM
same,GI50,MOLT-4 leukemia,21.4 µM
same,TGI,MOLT-4 leukemia,> 100 µM
same,GI50,A498 renal,> 100 µM
same,TGI,A498 renal,> 100 µM
same,GI50,M14 melanoma,> 100 µM
same,TGI,M14 melanoma,> 100 µM
same,GI50,HCC-2998 colon,> 100 µM
same,TGI,HCC-2998 colon,> 100 µM
same,GI50,SNB-78 CNS,> 100 µM
same,TGI,SNB-78 CNS,> 100 µM
same,GI50,CCRF-CEM leukemia,8.84 µM
same,TGI,CCRF-CEM leukemia,> 100 µM
same,GI50,OVCAR-4 ovarian,> 100 µM
same,TGI,OVCAR-4 ovarian,> 100 µM
same,GI50,HCT-15 colon,> 100 µM
same,TGI,HCT-15 colon,> 100 µM
same,GI50,NCI-H522 lung,92.1 µM
same,TGI,NCI-H522 lung,> 100 µM
same,GI50,LXFL 529 NSCLC,> 100 µM
same,TGI,LXFL 529 NSCLC,> 100 µM
same,GI50,SK-OV-3 ovarian,> 100 µM
same,TGI,SK-OV-3 ovarian,> 100 µM
same,GI50,HOP-92 NSCLC,> 100 µM
same,TGI,HOP-92 NSCLC,> 100 µM
same,GI50,IGROV1 ovarian,> 100 µM
same,TGI,IGROV1 ovarian,> 100 µM
same,GI50,U251 CNS,80.6 µM
same,TGI,U251 CNS,> 100 µM
same,GI50,OVCAR-5 ovarian,> 100 µM
same,TGI,OVCAR-5 ovarian,> 100 µM
same,GI50,SF-268 CNS,36.3 µM
same,TGI,SF-268 CNS,> 100 µM
same,GI50,DMS 114 small cell lung,50.7 µM
same,TGI,DMS 114 small cell lung,> 100 µM
same,GI50,SN12C renal,39.9 µM
same,TGI,SN12C renal,> 100 µM
same,GI50,HT29 colon,> 100 µM
same,TGI,HT29 colon,> 100 µM
same,GI50,M19-MEL melanoma,> 100 µM
same,TGI,M19-MEL melanoma,> 100 µM
same,GI50,SF-295 CNS,75.6 µM
same,TGI,SF-295 CNS,> 100 µM
same,GI50,NCI-H23 lung,29.4 µM
same,TGI,NCI-H23 lung,> 100 µM
same,GI50,TK-10 renal,> 100 µM
same,TGI,TK-10 renal,> 100 µM
same,GI50,K-562 leukemia,> 100 µM
same,TGI,K-562 leukemia,> 100 µM
same,GI50,SNB-19 CNS,> 100 µM
same,TGI,SNB-19 CNS,> 100 µM
same,GI50,SK-MEL-28 melanoma,> 100 µM
same,TGI,SK-MEL-28 melanoma,> 100 µM
same,GI50,EKVX NSCLC,> 100 µM
same,TGI,EKVX NSCLC,> 100 µM
same,GI50,HOP-62 NSCLC,63.1 µM
same,TGI,HOP-62 NSCLC,> 100 µM
